Measured values from patent US20110301099A1, “Method for enhancing penetration of lipid insoluble medicaments through cell membranes using small S-Allyl-containing molecules with phospholipid permeability as carrier molecules” (priority 2010, published 2011).

S-allyl cysteine sulfoxide [alliin]
lipid solubility: capability to dissolve in lipids
